Measured values: PubChem BioAssay AID1259422 (The Scripps Research Institute Molecular Screening Center, 2018)
This is a selection; strong and weak results do not stand in their true shares. Activity calls are given as the source filed them. Cut-off read from the data, not from the text of the source: active = inhibition above about 32%; inactive = the rest.

assay: TEAD-YAP interaction inhibition, primary screen, TEAD-YAP interaction inhibitor project, luminescence, HEK-TIYL cells (AID 1259422); settings: TEAD-Gal4/YAP UAS-luciferase luminescence, at 9.12 µM, active compounds read high;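 note: 0% = median of test compound wells and 100% = reference inhibitor wells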

Row | Compound | inhibition
1 | CC(=O)c1cccc(NC(=O)N(Cc2ccco2)C2CCN(CCc3ccccn3)CC2)c1 | inactive: -2.35%
2 | O=C(Oc1ccc([N+](=O)[O-])cc1[N+](=O)[O-])c1cc([N+](=O)[O-])cc([N+](=O)[O-])c1 | inactive: 2.43%
3 | O=[N+]([O-])c1cccc(P(=O)(Nc2ccccn2)c2cccc([N+](=O)[O-])c2)c1 | inactive: 13.7%
4 | CC1(C)Nc2ccccc2OP1(=O)c1ccccc1 (stereo unspecified) | inactive: 0.41%
5 | Cc1ccnc(NP2(=O)C=C(c3ccccc3)OC(c3ccccc3)=C2)c1 | inactive: 10.3%
6 | CCOC(=O)NC(Sc1cc(C)ncn1)C(Cl)(Cl)Cl (stereo unspecified) | inactive: 1.62%
7 | O=[N+]([O-])c1ccc(Nc2ccc([N+](=O)[O-])cc2[N+](=O)[O-])c(O)c1 | inactive: 10.7%
8 | CN(C(=O)Cc1ccccc1)[C@@H]1CC[C@]2(CCCO2)C[C@H]1N1CCCC1 | inactive: 2.23%
9 | Cc1ncc(-c2ccccc2)c2ccccc12 | inactive: -1.03%
10 | O=C(COC(=O)C(O)(c1ccccc1)c1ccccc1)NC(=O)NCc1ccccc1 | inactive: -6.19%
11 | Cc1ccc(NC2=NCC(CBr)S2)cc1 (stereo unspecified) | inactive: -6.12%
12 | O=[N+]([O-])c1ccc(N/N=C/c2ccc(Cl)c([N+](=O)[O-])c2)c([N+](=O)[O-])c1 | inactive: 1.76%
13 | NC(=O)c1nsnc1NCCCl | inactive: 3.1%
14 | CCOc1ccc2nc(NCCCl)[nH]c2c1 | inactive: -26.2%
15 | CC(=O)NC(SC1=NCCS1)C(Cl)(Cl)Cl (stereo unspecified) | inactive: -2.47%
16 | O=P(Nc1ccccn1)(c1ccccc1)c1ccccc1 | inactive: -0.9%
17 | Cn1cnc([N+](=O)[O-])c1SCCCl | inactive: -6.58%
18 | NC(=O)COC(=O)C1(O)c2ccccc2-c2ccccc21 | inactive: 8.07%
19 | CCOP1(=O)Oc2ccccc2OC1c1ccccc1 (stereo unspecified) | inactive: -6.8%
20 | O=P(Nc1nccs1)(Oc1ccccc1)Oc1ccccc1 | inactive: 7.25%
21 | O=P(Nc1nccs1)(c1ccccc1)c1nc2ccccc2s1 (stereo unspecified) | inactive: -4.66%
22 | O=C(c1cccnc1)N(Cc1cccnc1)C1CCN(CCc2cccs2)CC1 | inactive: -6.79%
23 | CCC(C(=O)OC1CN2CCC1CC2)c1ccccc1 (stereo unspecified) | inactive: 2.48%

Row | Compound | inhibition
24 | CCOP(=O)(Nc1cccc2ccccc12)OCC | inactive: -0.22%
25 | O=C(N/N=C\c1ccc([N+](=O)[O-])cc1)c1cc([N+](=O)[O-])cc([N+](=O)[O-])c1O | inactive: -0.67%
26 | CCOC(=O)C(C(=O)OCC)C(O)c1c([N+](=O)[O-])cc([N+](=O)[O-])cc1[N+](=O)[O-] (stereo unspecified) | inactive: -4.11%
27 | O=C(Nc1cccc([N+](=O)[O-])c1)c1ccc([N+](=O)[O-])cc1[N+](=O)[O-] | inactive: -8.18%
28 | Cc1ccc(NCCc2c([N+](=O)[O-])cc([N+](=O)[O-])cc2[N+](=O)[O-])cc1 | inactive: 6.53%
29 | BrCC1CN=C(Nc2ccccc2)S1 (stereo unspecified) | inactive: -10.9%
30 | COc1cc(-n2cnnn2)ccc1-n1cnnn1 | inactive: 4.2%
31 | Cc1cccc(OCC(=O)OC2CN3CCC2CC3)c1 (stereo unspecified) | inactive: 6.7%
32 | CC(C)OP(=O)(OC(C)C)C(=O)c1ccco1 | inactive: -31.8%
33 | Cc1cc(Br)c(Nc2c([N+](=O)[O-])cc([N+](=O)[O-])c3nonc23)cc1[N+](=O)[O-] | inactive: -6.06%
34 | COP(=O)(Nc1ccc(C)cc1)OC | inactive: -5.24%
35 | Cc1cc(NC(=O)NP(=O)(O)O)n(-c2ccccc2)n1 | inactive: -1.92%
36 | CCOP1(=O)N=C(c2ccc(Br)cc2)NC(=O)N1 (stereo unspecified) | inactive: -14.4%
37 | CN(C(=O)Cc1ccc(Cl)c(Cl)c1)[C@@H]1CC[C@]2(CCCO2)C[C@H]1N1CCCC1 | inactive: -3.29%
38 | COc1cc([N+](=O)[O-])cc([N+](=O)[O-])c1N/N=C(/C)c1cccc([N+](=O)[O-])c1 | inactive: 3.78%
39 | CC(Cl)(CSSCC(C)(Cl)C(=O)O)C(=O)O (stereo unspecified) | inactive: -0.88%
40 | COC(=O)c1nsnc1NCCCl | inactive: 9.66%
41 | CC1(CBr)Cn2c(nc3ccccc3c2=O)S1 (stereo unspecified) | inactive: 9.73%
42 | Cc1ccc(S(=O)(=O)NCCCCC(NC(=O)OC(C)(C)C)C(=O)O)cc1 (stereo unspecified) | inactive: 3.61%
43 | CCCCC(NC(=O)OC(C)(C)C)C(=O)O (stereo unspecified) | inactive: -0.02%
44 | O=C(Nc1ccc(Br)cc1[N+](=O)[O-])c1cc([N+](=O)[O-])cc([N+](=O)[O-])c1 | inactive: 11%
45 | COC(=O)c1cc([N+](=O)[O-])c(Nc2ccc([N+](=O)[O-])cc2Br)c([N+](=O)[O-])c1 | inactive: -8.98%
46 | CCc1cccc(NC(=O)Oc2c([N+](=O)[O-])cc([N+](=O)[O-])cc2[N+](=O)[O-])c1 | inactive: 3.97%
